Source: PMC10888688 (International Journal of Molecular Sciences, 2024)

Tests used:
[1] = test system: Acinetobacter baumannii ATCC BAA-1798; assay: MIC, A. baumannii; type: cell-based; settings: A. baumannii ATCC BAA-1798; broth dilution, overnight at 37 °C, peptide 0 to 16 μM
Protocol: (§1) Typically, an overnight bacterial culture was grown to the mid-log phase on a shaker at 183 rpm, at 37 °C, and then diluted in 2X Mueller Hinton (MH) broth (Millipore-Sigma^TM, Saint Louis, MO, USA) to achieve a final OD of 0.002. In a 96-well plate, 100 μL of the diluted bacterial culture along with 100 μL of peptide, concentrations ranging from 0 μM to 16 μM, was added and incubated overnight at 37 °C. Peptide concentrations were estimated by UV absorbance at a wavelength of 274 nm using a molar extinction coefficient (ε) of 1420 M^−1 cm^−1. Bacterial growth inhibition was determined by absorbance of 96 well plates at OD600 nm using a Cytation spectrophotometer (Agilent, Santa Clara, CA, USA).

[2] = test system: Enterococcus faecalis ATCC 29212; assay: MIC, broth dilution, E. faecalis; type: cell-based; settings: MH broth, overnight at 37 °C, peptide 0 to 16 μM, OD600, E. faecalis ATCC 29212
Protocol: as §1

[3] = test system: Klebsiella pneumoniae ATCC 13883; assay: MIC, broth dilution, K. pneumoniae; type: cell-based; settings: MH broth, overnight at 37 °C, peptide 0 to 16 μM, OD600, K. pneumoniae ATCC 13883
Protocol: as §1

[4] = test system: Streptococcus pyogen ATCC 19615; assay: MIC, broth dilution, S. pyogenes; type: cell-based, Streptococcus pyogenes; settings: MH broth, overnight at 37 °C, peptide 0 to 16 μM, OD600, S. pyogenes ATCC 19615
Protocol: as §1

[5] = test system: Escherichia coli ATCC 25922; assay: MIC, broth dilution, E. coli; type: cell-based; settings: MH broth, overnight at 37 °C, peptide 0 to 16 μM, OD600, E. coli ATCC 25922
Protocol: as §1

CC[C@H](C)[C@H](N)C(=O)N[C@H](C(=O)N[C@@H](Cc1ccc(O)cc1)C(=O)N[C@H]1CSSC[C@@H](C(=O)N[C@@H](CCC(N)=O)C(=O)N[C@@H](CCCNC(=N)N)C(=O)N[C@@H](CCSC)C(N)=O)NC(=O)[C@H](CCCCN)NC(=O)CNC(=O)[C@H]([C@@H](C)O)NC(=O)[C@H](CCCNC(=N)N)NC(=O)[C@H](CCCNC(=N)N)NC(=O)[C@H](CC(N)=O)NC1=O)[C@@H](C)CC [IM14]
MIC (AB) [1]: >16 µM
MIC (EF) [2]: >16 µM
MIC (KP) [3]: >16 µM
MIC (SP) [4]: >16 µM
MIC (EC) [5]: >16 µM

CC[C@H](C)[C@H](NC(=O)[C@@H](NC(=O)[C@@H]1CCCN1C(=O)[C@@H](N)C(C)C)[C@@H](C)CC)C(=O)N[C@@H](Cc1ccc(O)cc1)C(=O)N[C@H]1CSSC[C@@H](C(=O)N[C@@H](CCC(N)=O)C(=O)N[C@@H](CCCNC(=N)N)C(=O)N[C@@H](CCSC)C(N)=O)NC(=O)[C@H](CCCCN)NC(=O)CNC(=O)[C@H]([C@@H](C)O)NC(=O)[C@H](CCCNC(=N)N)NC(=O)[C@H](CCCNC(=N)N)NC(=O)[C@H](CC(N)=O)NC1=O [VM16]
MIC (AB) [1]: >16 µM
MIC (EF) [2]: 4 µM (≈ 7.74 µg/mL)
MIC (SP) [4]: 4 µM (≈ 7.74 µg/mL)

≈ marks a conversion by molar mass, not a printed value.
